# Measured affinities in a library of Ab-14 heavy chain variants

Antigen: PDVDLGDISGINAS, a 14-residue peptide of the SARS-CoV-2 spike HR2 region.

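The starting antibody came from a phage panning campaign against this peptide. The library (AAYL49) carries one to three amino acid substitutions per variant, with no insertions or deletions. The scFvs were displayed on barcoded MATa yeast, the peptide on MATalpha yeast. Mating (16 h, 30 °C) was followed by selection of diploids and sequencing of their barcodes. A regression on co-assayed BCL2-family reference pairs converts the normalised counts of each replicate to an apparent Kd. Mating was done three times.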

Parent: Ab-14, a human scFv built as VH, a (GGGGS)3 linker, VL. Only the CDRs of the heavy chain vary.
VH: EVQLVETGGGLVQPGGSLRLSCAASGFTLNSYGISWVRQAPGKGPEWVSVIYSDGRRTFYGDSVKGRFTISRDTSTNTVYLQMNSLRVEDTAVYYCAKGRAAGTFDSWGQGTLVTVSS
VL: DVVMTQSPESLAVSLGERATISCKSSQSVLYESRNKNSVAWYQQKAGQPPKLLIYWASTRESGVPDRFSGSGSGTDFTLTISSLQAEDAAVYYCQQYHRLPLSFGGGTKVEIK

The parent's heavy chain CDRs are GFTLNSYGIS, VIYSDGRRTFYGDSVK, GRAAGTFDS; each variant's own CDRs replace them letter for letter.
Scale: log10 of Kd in nM, estimated from mating counts; low values are strong binders.
An entry "nd" has no value in the source: the pair was not observed among the diploids in that replicate. This suggests poor binding but is not conclusive.
As a blank, each scFv also met three strains without target: over library AAYL49, 15% of these pairings were detected, typically at 4.06 and seldom below 2.83. The control count says in how many pairings with the empty strains this scFv gave a signal, with their mean in brackets.
For reference, the parent read 0.65 as the reference entry and 4.11 (one replicate of three) as a member of this library.

CDR-H1,CDR-H2,CDR-H3,"replicates, log10 nM",empty controls
GFTLNSYGIS,VMYSDGTRTFYVDSVK,GRAAGTFDS,1.58 / 1.43 / 1.70,3/9 (4.27)
GFTLNSYGIS,VISSDGRRTFYGDSVK,GRAHGWFDS,nd / nd / 3.24,1/9 (3.32)
GFCLNSYGIS,VIYSDGRRTFYGDSVK,GRAAGTFHS,nd / nd / nd,0/9
GFTLNSYGIS,VIYSDGRRTFYGDSVK,GRAADTFHS,3.38 / nd / 3.17,0/9
GFTLNSYGIS,VIYSDGRRTFNGDSVK,GRAAGTQDC,nd / 4.38 / 3.17,2/9 (3.64)
GFTLNEYGIS,VIYEDGRRTFMGDSVK,GRAAGTFDS,nd / nd / nd,2/9 (4.58)
GFTLNSYGIS,VFYSDGRRTFEGDSVK,GRAAGTFRS,nd / 2.10 / 3.86,1/9 (3.49)
GFTLNSYGIS,VIYSDSRRTTYGDSVK,GLAAGTFDS,nd / nd / nd,2/9 (3.52)
QFTLNSYGIS,LIYSDGRRTFYGDSVK,PRAAGTFDS,nd / nd / nd,2/9 (4.99)
GFTLNSYGIS,VIYSDGRRTFYGDAVK,GRAPGTWDS,nd / nd / nd,0/9
GFTLNSYGIS,VIYSDGHRTFYGDSVK,GGAAITFDS,nd / 4.26 / nd,2/9 (3.00)
GFTLNSYGIS,VIYSDSRRTFYGDSVK,GRAAGCMDS,nd / nd / nd,0/9
GGTLNSWGGS,VIYSDGRRTFYGDSVK,GRAAGTFDS,nd / nd / nd,0/9
GFTLNSYGIS,VIYSQGRRLFYGDSVK,FRAAGTFDS,nd / nd / nd,0/9
GCTLVSYGIS,MIYSDGRRTFYGDSVK,GRAAGTFDS,4.43 / nd / nd,1/9 (4.03)
GFTLNSYFIS,VIYSDGLRTDYGDSVK,GRAAGTFDS,nd / nd / nd,0/9
GFTLNSYRIS,VILSDGRRTFWGDSVK,GRAAGTFDS,nd / nd / nd,1/9 (4.17)
RFTLNSYGIS,VIYSDGRRTFYGDSVK,GRHAGTFDS,nd / nd / nd,0/9
DFTLNSYGAS,VIYSDGRRTFYGDSVK,GRAAGTFYS,nd / 3.97 / nd,4/9 (4.19)
GFTLNDYGIS,VIYSDGRRTFYGDSFK,GRALGTFDS,nd / nd / nd,1/9 (3.38)
GFTLNSYGIS,VIYSDQRRTFYGDSVK,GTPAGTFDS,nd / nd / nd,0/9
GFTLNYYGIS,VIYSRGRRTFWGDSVK,GRAAGTFDS,nd / nd / nd,0/9
GFTLNFYKIS,VIYSDGRRTFYGDSVK,GRAAATFDS,nd / nd / nd,0/9
GFTLNGYGIS,VIYSDGRRTFMGDSVK,GRAAGTCDS,2.69 / nd / nd,0/9
GFTLNMYGIS,VIYSDGRRDFYIDSVK,GRAAGTFDS,1.21 / 1.13 / 1.14,4/9 (4.24)
GFTLNSKGIS,VIYSDSRRTRYGDSVK,GRAAGTFDS,nd / nd / nd,1/9 (3.75)
GFTGNSYGIS,VIYSDNRRTFYGDSRK,GRAAGTFDS,4.48 / nd / 4.97,2/9 (4.00)
GFTLNSYGIS,VIYSDGYNTFYGDSHK,GRAAGTFDS,nd / 4.23 / nd,1/9 (6.00)
GFTLNSYGIS,VTYSDGRRTFYHDSVK,GRAAGTFDF,nd / nd / nd,0/9
GFSLNSYGIS,VIYSDGRRTFYGDSWK,GRAAGTFDS,3.18 / 3.16 / 2.97,1/9 (5.11)
GFTLNSYGIS,VICSDGWRDFYGDSVK,GRAAGTFDS,5.71 / nd / nd,5/9 (4.72)
GFTLNSFVIS,VIYSDGRPTFYGDSVK,GRAAGTFDS,nd / nd / nd,0/9
KFTLNSYGVS,VIYSDGRRTFYGDSVK,GRAAGSFDS,nd / nd / nd,1/9 (3.90)
GFMLNSYGIS,VIYSDGRRTMYGDSVK,GRAAGTIDS,1.10 / 1.44 / 1.23,1/9 (3.08)
KFTLNNYGIS,VIYSDGARTFYGDSVK,GRAAGTFDS,1.04 / 0.89 / 0.95,0/9
GFWLNSYGIS,VKYSDGRRTFYGDSVK,GRAAQTFDS,nd / nd / nd,1/9 (3.74)
GFTLNSYGIS,VIYSDGRCTFYMDSVK,GEAAGTFDS,3.52 / nd / nd,1/9 (3.37)
GFTLNSYGIS,VIRSDGRRTFYWDSVK,GRAAGTFKS,nd / nd / nd,0/9
GFTLNSYGIS,VIYSDGRRTDSGDSVK,GRAEGTFDS,4.64 / 3.16 / 4.01,5/9 (4.15)
GFTLNSYGCS,VLYSDGRRTFYGDSVN,GRAAGTFDS,nd / nd / nd,1/9 (3.80)

A selection of 3 entries from above:

CDR-H1,CDR-H2,CDR-H3,"replicates, log10 nM",empty controls
GFTLNMYGIS,VIYSDGRRDFYIDSVK,GRAAGTFDS,1.21 / 1.13 / 1.14,4/9 (4.24)
GFTLNSYGIS,VIYSDGRRTDSGDSVK,GRAEGTFDS,4.64 / 3.16 / 4.01,5/9 (4.15)
GFTLNSYGIS,VIYSDGHRTFYGDSVK,GGAAITFDS,nd / 4.26 / nd,2/9 (3.00)

Source: Engelhart et al. 2022 (doi:10.1038/s41597-022-01779-4), MIT Lincoln Laboratory and A-Alpha Bio; data file from the FLAb repository.